{
  "source": "patent US9890140B2",
  "about": "“Maleate salts of a quinazoline derivative useful as an antiangiogenic agent” (AstraZeneca AB, priority 2003, dated 2018)",
  "format_in_all_cases": "physicochemical",
  "key": {"[1]": {"assay": "Crystallinity of AZD2171 salts"}, "[2]": {"assay": "Evidence of hydrate formation (vapour sorption or TGA)", "conditions": "vapour sorption (hysteresis, water absorption) or TGA", "procedure": "About 5 mg of material contained in a quartz holder at 25° C. was subjected to humidified nitrogen at the following relative humidities (RH): 0, 20, 40, 60, 80, 95, 80, 60, 40, 20, 0% RH in duplicate. Typically between 3 and 12 mg of material contained in a 70 μl alox (aluminium oxide) crucible was heated over the temperature range 25° C. to 325° C. at a constant heating rate of 10° C. per minute. A purge gas using helium was used—flow rate 50 ml per minute."}, "[3]": {"assay": "Evidence for polymorphism from DSC thermograms", "procedure": "Analytical Instrument: Mettler DSC820e. Typically less than 5 mg of material contained in a 40 μl aluminium pan fitted with a pierced lid was heated over the temperature range 25° C. to 325° C. at a constant heating rate of 10° C. per minute. A purge gas using nitrogen was used—flow rate 100 ml per minute."}, "[4]": {"assay": "Dynamic vapour sorption, moisture content at 80% RH", "conditions": "80% relative humidity", "procedure": "Dynamic Vapour Sorption Analytical Instrument: Surface Measurements Systems Dynamic Vapour Sorption Analyser. About 5 mg of material contained in a quartz holder at 25° C. was subjected to humidified nitrogen at the following relative humidities (RH): 0, 20, 40, 60, 80, 95, 80, 60, 40, 20, 0% RH in duplicate."}},
  "data": [
    {"substance": "Succinate", "values": [
      {"measurement": "Crystalline (Yes/No)", "setting": "[1]", "result": "Yes"},
      {"measurement": "Evidence of Hydrate Formation (Yes/No)", "setting": "[2]", "result": "No"},
      {"measurement": "No of Polymorphs", "setting": "[3]", "result": "≧2"},
      {"measurement": "Moisture Content at 80% RH", "setting": "[4]", "result": 11.4, "unit": "%"}
    ]}
  ]
}
